Legend:
Assay type in all cases: biochemical
CK-1ε = biological target: T1, CK-1ε (Homo sapiens, UniProt P49674); test: ADP-Glo kinase inhibition assay, CK-1ε; details: read-out: Residual activity CK-1ε
T1 construct: host or cells: Sf9 insect cells (baculovirus)
Protocol: (§1) Kinase enzymatic activities were assayed in 384-well plates using the ADP-Glo^TM assay kit (Promega, Madison, WI, USA) according to the recommendations of the manufacturer. This luminescent ADP detection assay was described by Zegzouti and co-workers and provides a homogeneous and high-throughput screening method to measure kinase activity by quantifying the amount of ADP produced during a kinase reaction. Briefly, the reactions were carried out in a final volume of 6 µL for 30 min at 30 °C in an appropriate kinase buffer (10 mM MgCl2, 1 mM EGTA, 1 mM DTT, 25 mM Tris-HCl pH 7.5, 50 µg/mL heparin), with peptide or protein as substrate in the presence of 10 µM ATP. Peptide substrates were obtained from ProteoGenix (Schiltigheim, France) or Sigma for Histone H1, Poly (L-glutamic acid–L-tyrosine) sodium salt, Casein and MBP. After that, 6 µL of ADP-Glo^TM Kinase Reagent was added to stop the kinase reaction. […] The transmitted signal was measured using the Envision (PerkinElmer, Waltham, MA, USA) microplate luminometer and expressed as Relative Light Units (RLUs). Kinase activities are expressed as percentages of remaining kinase activities detected after treatment with 1 or 10 µM of the tested compounds. The maximum kinase activity was measured in the absence of inhibitor but with an equivalent dose of DMSO (solvent of the tested compounds). […]

GSK-3β = biological target: T2, GSK-3β (Homo sapiens, UniProt P49841); test: ADP-Glo kinase inhibition assay, GSK-3β; details: read-out: Residual activity GSK-3β
T2 construct: host or cells: Sf9 insect cells (baculovirus)
Protocol: as §1

DYRK1A = biological target: T3, DYRK1A (Homo sapiens, UniProt Q13627); test: ADP-Glo kinase inhibition assay, DYRK1A; details: read-out: Residual activity DYRK1A
T3 construct: host or cells: Sf9 insect cells (baculovirus)

COC(=N)c1nc2ccc3ncnc(Nc4ccc(OC)cc4F)c3c2s1 [Compound II, methyl 9-[(2-fluoro-4-methoxyphenyl)amino]thiazolo[5,4-f]quinazoline-2-carbimidate, reference compound]
remaining activity at 1 µM (CK-1ε): 44% | remaining activity at 10 µM (CK-1ε): 19% | remaining activity at 1 µM (GSK-3β): 29% | remaining activity at 10 µM (GSK-3β): 13% | remaining activity at 1 µM (DYRK1A): 16%

— paper PMC11597202, “Novel Thiazole-Fused [4,5-g] or [5,4-g]Quinazolin-8-ones and Their Quinazoline Analogues: Synthesis and Biological Evaluation” (Pharmaceuticals, 2024)
